# Cyclic peptide permeability, from CycPeptMPDB

Values of Townsend et al. 2020, doi:10.26434/chemrxiv.13335941.v1, as listed in CycPeptMPDB.

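Conditions beyond the assay type are not listed; see the original paper. The list need not hold all peptides of the study. Entries at the database's floor value (log10 P of -10) are not listed.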

PAMPA is the parallel artificial membrane permeability assay, which has no cells and reads passive diffusion.
P is given in units of 10^-6 cm/s (from log10 values with two decimals); larger means faster passage.

CC(C)C[C@H]1C(=O)N[C@@H](Cc2ccccc2)C(=O)N2CCC[C@@H]2C(=O)N(C)[C@@H](C)C(=O)N(Cc2ccccc2)CC(=O)N(Cc2ccccc2)CC(=O)N2CCC[C@H]2C(=O)N1C has PAMPA 6.5 × 10^-6 cm/s.
CC(C)C[C@H]1C(=O)N2CCC[C@@H]2C(=O)N(C)[C@@H](CC(C)C)C(=O)N[C@@H](Cc2ccccc2)C(=O)N2CCC[C@@H]2C(=O)N[C@@H](C)C(=O)N(Cc2ccccc2)CC(=O)N1C has PAMPA 8.5 × 10^-6 cm/s.
CCCN1CC(=O)N(C)[C@@H](CC(C)C)C(=O)N[C@@H](Cc2ccccc2)CC(=O)N2CCC[C@H]2C(=O)N(Cc2ccccc2)CC(=O)N[C@@H](Cc2ccccc2)C(=O)N2CCC[C@H]2C1=O has PAMPA 2.1 × 10^-6 cm/s.
C[C@@H]1NC(=O)[C@H](Cc2ccccc2)NC(=O)CN(Cc2ccccc2)C(=O)[C@H]2CCCN2C(=O)CN(Cc2ccccc2)C(=O)CN(Cc2ccccc2)C1=O has PAMPA 0.16 × 10^-6 cm/s.
CC(C)C[C@H]1C(=O)N[C@@H](Cc2ccccc2)C(=O)N2CCC[C@@H]2C(=O)N(C)[C@H](C)C(=O)N(Cc2ccccc2)CC(=O)N(Cc2ccccc2)CC(=O)N2CCC[C@@H]2C(=O)N1C has PAMPA 0.39 × 10^-6 cm/s.
CCCN1CC(=O)N(C)[C@@H](CC(C)C)C(=O)N(Cc2ccccc2)CC(=O)N2CCC[C@H]2C(=O)N(Cc2ccccc2)CC(=O)N[C@@H](Cc2ccccc2)C1=O has PAMPA 2.6 × 10^-6 cm/s.
CC(C)C[C@H]1C(=O)N(Cc2ccccc2)CC(=O)N2CCC[C@H]2C(=O)N(Cc2ccccc2)CC(=O)N[C@@H](Cc2ccccc2)C(=O)N2CCC[C@@H]2C(=O)N[C@@H](C)C(=O)N1C has PAMPA 0.89 × 10^-6 cm/s.
CCCN1CC(=O)N(Cc2ccccc2)CC(=O)N[C@@H](CC(C)C)C(=O)N2CCC[C@H]2C(=O)N[C@H](CC(C)C)C(=O)N[C@@H](Cc2ccccc2)C(=O)N2CCC[C@@H]2C1=O has PAMPA 0.72 × 10^-6 cm/s.
CCCN1CC(=O)N(Cc2ccccc2)CC(=O)N[C@@H](CC(C)C)C(=O)N2CCC[C@@H]2C(=O)N(Cc2ccccc2)CC(=O)N[C@@H](Cc2ccccc2)C(=O)N2CCC[C@@H]2C1=O has PAMPA 2.6 × 10^-6 cm/s.
CC(C)C[C@@H]1C(=O)N[C@@H](Cc2ccccc2)CC(=O)N2CCC[C@H]2C(=O)N(C)[C@@H](CC(C)C)C(=O)N[C@@H](Cc2ccccc2)C(=O)N[C@@H](Cc2ccccc2)CC(=O)N1C has PAMPA 3.9 × 10^-6 cm/s.
CC(C)C[C@@H]1NC(=O)C[C@H](Cc2ccccc2)NC(=O)[C@@H]2CCCN2C(=O)[C@H](Cc2ccccc2)NC(=O)CN(Cc2ccccc2)C(=O)[C@H]2CCCN2C(=O)CN(Cc2ccccc2)C1=O has PAMPA 1.3 × 10^-6 cm/s.
CC(C)C[C@@H]1NC(=O)[C@H]2CCCN2C(=O)[C@@H](CC(C)C)NC(=O)CN(Cc2ccccc2)C(=O)[C@H](C)N(C)C(=O)[C@H]2CCCN2C(=O)[C@H](Cc2ccccc2)NC1=O has PAMPA 0.45 × 10^-6 cm/s.
CCCN1CC(=O)N(Cc2ccccc2)CC(=O)N(Cc2ccccc2)CC(=O)N2CCC[C@@H]2C(=O)N(C)[C@@H](CC(C)C)C(=O)N[C@@H](Cc2ccccc2)C(=O)N2CCC[C@H]2C1=O has PAMPA 0.26 × 10^-6 cm/s.
CC(C)C[C@@H]1C(=O)N(C)[C@@H](CC(C)C)C(=O)N2CCC[C@@H]2C(=O)N[C@H](CC(C)C)C(=O)N[C@@H](Cc2ccccc2)C(=O)N2CCC[C@H]2C(=O)N[C@@H](Cc2ccccc2)CC(=O)N1C has PAMPA 2.2 × 10^-6 cm/s.
CC(C)C[C@@H]1NC(=O)[C@@H]2CCCN2C(=O)C[C@H](Cc2ccccc2)NC(=O)CN(Cc2ccccc2)C(=O)[C@@H](C)NC(=O)[C@@H]2CCCN2C(=O)[C@H](Cc2ccccc2)NC1=O has PAMPA 0.66 × 10^-6 cm/s.
CC(C)C[C@@H]1NC(=O)[C@@H]2CCCN2C(=O)CN(Cc2ccccc2)C(=O)CN(Cc2ccccc2)C(=O)[C@@H](C)N(C)C(=O)[C@@H]2CCCN2C(=O)[C@H](Cc2ccccc2)NC1=O has PAMPA 0.16 × 10^-6 cm/s.
CC(C)C[C@@H]1NC(=O)C[C@H](Cc2ccccc2)NC(=O)[C@H](Cc2ccccc2)NC(=O)CN(Cc2ccccc2)C(=O)[C@@H]2CCCN2C(=O)[C@H](CC(C)C)N(C)C1=O has PAMPA 4.1 × 10^-6 cm/s.
CC(C)C[C@H]1C(=O)N(C)[C@@H](CC(C)C)C(=O)N2CCC[C@H]2C(=O)N(Cc2ccccc2)CC(=O)N[C@@H](Cc2ccccc2)C(=O)N[C@@H](Cc2ccccc2)CC(=O)N1C has PAMPA 5.9 × 10^-6 cm/s.
C[C@@H]1C(=O)N(Cc2ccccc2)CC(=O)N(Cc2ccccc2)CC(=O)N2CCC[C@H]2C(=O)N(Cc2ccccc2)CC(=O)N[C@@H](Cc2ccccc2)C(=O)N1C has PAMPA 0.78 × 10^-6 cm/s.

The 2 lowest values of PAMPA among the entries above:

For CC(C)C[C@@H]1NC(=O)[C@@H]2CCCN2C(=O)CN(Cc2ccccc2)C(=O)CN(Cc2ccccc2)C(=O)[C@@H](C)N(C)C(=O)[C@@H]2CCCN2C(=O)[C@H](Cc2ccccc2)NC1=O the data give PAMPA 0.16 × 10^-6 cm/s.
For C[C@@H]1NC(=O)[C@H](Cc2ccccc2)NC(=O)CN(Cc2ccccc2)C(=O)[C@H]2CCCN2C(=O)CN(Cc2ccccc2)C(=O)CN(Cc2ccccc2)C1=O the data give PAMPA 0.16 × 10^-6 cm/s.